Consider 13 compounds from USRE49825E1, “Piperidinyl nociceptin receptor compounds” (Astraea Therapeutics, LLC, priority 2015, dated 2024).

The target of one test is kappa opioid receptor (Homo sapiens, UniProt P41145). The test can be described thus: Radioligand binding assay, [3H]U69593, membranes of CHO cells transfected with human kappa opioid receptor. Conditions: read-out: Receptor Binding Ki (nM) κ, Compounds of Formula (II), CHO cell membranes.
Another test deals with mu opioid receptor (Homo sapiens, UniProt P35372). The test can be described thus: Radioligand binding assay, [3H]DAMGO, membranes of CHO cells transfected with human mu opioid receptor. The conditions noted are these: read-out: Receptor Binding Ki (nM) μ, Compounds of Formula (II), CHO cell membranes.
For test [1], the target named is nociceptin (NOP) receptor (Homo sapiens, UniProt P41146). The test is described as follows: Radioligand binding assay, [3H]N/OFQ, membranes of CHO cells transfected with human NOP receptor. Conditions: read-out: Receptor Binding Ki (nM) NOP, Compounds of Formula (II), CHO cell membranes.

On to `CC(C)[C@H]1CC[C@@H](N2CCC(n3cc(C=NO)c4ccccc43)CC2)CC1`, for which the Ki at kappa opioid receptor was > 5000 nM; on mu opioid receptor, 15 to 150 nM; in test [1], < 15 nM.

For `CC1(C)CCC(N2CCC(n3c(CO)cc4ccccc43)CC2)CC1`, the Ki was 15 to 150 nM at kappa opioid receptor, 15 to 150 nM at mu opioid receptor and < 15 nM in test [1].

`CCOC(=O)NCc1c(C=NO)c2ccccc2n1C1CCN([C@H]2CC[C@@H](C(C)C)CC2)CC1`: the Ki at kappa opioid receptor was 15 to 150 nM; at mu opioid receptor, 15 to 150 nM; in test [1], < 15 nM.

`CC(C)[C@H]1CC[C@@H](N2CCC(n3cc(/C=C/C#N)c4ccccc43)CC2)CC1`: the Ki at kappa opioid receptor fell in the range of 150 to 5000 nM; on mu opioid receptor it was 150 to 5000 nM; in test [1], 15 to 150 nM.

On to `CC(=O)OCc1cc2ccccc2n1C1CCN([C@H]2CC[C@@H](C(C)C)CC2)CC1`, for which the Ki was 150 to 5000 nM on kappa opioid receptor, < 15 nM on mu opioid receptor and < 15 nM in test [1].

`CC(C)[C@H]1CC[C@@H](N2CCC(n3cc(CCCN)c4cc(F)ccc43)CC2)CC1`: the Ki on kappa opioid receptor was > 5000 nM; at mu opioid receptor, 15 to 150 nM; in test [1], 15 to 150 nM.

On to `Cc1ccc(S(=O)(=O)NCc2c(CO)c3ccccc3n2C2CCN([C@H]3CC[C@@H](C(C)C)CC3)CC2)cc1`, for which the Ki at kappa opioid receptor is 150 to 5000 nM; on mu opioid receptor, 15 to 150 nM; in test [1], < 15 nM.

Consider `CC(C)[C@H]1CC[C@@H](N2CCC(n3cc(CCNC(N)=O)c4ccccc43)CC2)CC1`, for which the results for the inhibition constant Ki (at kappa opioid receptor; at mu opioid receptor; in test [1]) were 150 to 5000 nM, 150 to 5000 nM and 15 to 150 nM, respectively.

As for `CC(C)[C@H]1CC[C@@H](N2CCC(n3c(COC(=O)C(C)(C)C)cc4ccccc43)CC2)CC1`, the Ki on kappa opioid receptor is 150 to 5000 nM; at mu opioid receptor, 15 to 150 nM; in test [1], < 15 nM.

For `CC(=O)OCCc1cc2ccccc2n1C1CCN([C@H]2CC[C@@H](C(C)C)CC2)CC1`, the Ki at kappa opioid receptor was 150 to 5000 nM; on mu opioid receptor it was < 15 nM; in test [1], < 15 nM.

For `CC(C)(O)[C@H]1CC[C@@H](N2CCC(n3c(CO)cc4ccccc43)CC2)CC1`, the Ki at kappa opioid receptor is > 5000 nM; on mu opioid receptor it was 150 to 5000 nM; in test [1], 15 to 150 nM.

With `Cc1ccc(S(=O)(=O)NCc2c(/C=N/O)c3ccccc3n2C2CCN(C3CCC(C(C)C)CC3)CC2)cc1` (stereo not drawn), the Ki at kappa opioid receptor was 15 to 150 nM; on mu opioid receptor, < 15 nM; in test [1], < 15 nM.

With `CC(C)[C@H]1CC[C@@H](N2CCC(n3cc(CCNC(N)=S)c4ccccc43)CC2)CC1`, the Ki on kappa opioid receptor was 15 to 150 nM; on mu opioid receptor it was 150 to 5000 nM; in test [1], 15 to 150 nM.

As a reminder, the Ki is a measure of affinity in units of concentration, obtained from inhibition or displacement.
